Experimental findings from patent US8884023B2, “Pyrano [3,2-D][1,3]thiazole as glycosidase inhibitors” (priority 2011, dated 2014) are described below.

Bounds are passed on as bounds.

The target of this experiment is T1, His-Tagged hOGA (human O-GlcNAcase) (Homo sapiens, UniProt O60502).
T1 sequence (O60502 1-916): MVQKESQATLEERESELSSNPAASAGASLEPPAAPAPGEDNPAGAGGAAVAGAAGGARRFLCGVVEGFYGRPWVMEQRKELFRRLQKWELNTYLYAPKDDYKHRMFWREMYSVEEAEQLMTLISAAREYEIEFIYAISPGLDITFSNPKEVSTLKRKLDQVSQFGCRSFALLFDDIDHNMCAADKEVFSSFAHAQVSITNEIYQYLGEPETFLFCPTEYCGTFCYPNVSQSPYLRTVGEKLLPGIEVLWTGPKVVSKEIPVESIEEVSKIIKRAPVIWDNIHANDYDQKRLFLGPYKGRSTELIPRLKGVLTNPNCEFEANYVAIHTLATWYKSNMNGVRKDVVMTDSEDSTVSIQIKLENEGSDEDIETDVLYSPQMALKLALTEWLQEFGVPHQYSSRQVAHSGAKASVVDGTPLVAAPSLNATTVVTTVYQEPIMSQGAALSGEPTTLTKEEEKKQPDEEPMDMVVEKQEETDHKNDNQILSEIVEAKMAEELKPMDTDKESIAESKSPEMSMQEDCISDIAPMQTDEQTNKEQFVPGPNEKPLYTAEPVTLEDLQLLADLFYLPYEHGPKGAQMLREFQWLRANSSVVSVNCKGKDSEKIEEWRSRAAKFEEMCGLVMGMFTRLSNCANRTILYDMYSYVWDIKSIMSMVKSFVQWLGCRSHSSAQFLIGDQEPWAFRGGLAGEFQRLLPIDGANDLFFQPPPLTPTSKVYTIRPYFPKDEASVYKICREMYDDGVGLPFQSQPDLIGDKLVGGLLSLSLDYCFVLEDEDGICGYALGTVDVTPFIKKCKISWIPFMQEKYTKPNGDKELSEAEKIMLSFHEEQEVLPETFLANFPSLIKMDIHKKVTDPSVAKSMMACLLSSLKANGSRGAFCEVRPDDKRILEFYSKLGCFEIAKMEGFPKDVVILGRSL
Description: biochemical. As for the experimental part: Human O-GlcNAcase Enzyme Inhibition Assay
The following reaction components were added to a final volume of 10 μL in McIlvaine's Buffer (pH 6.5):
20 nM His-Tagged hOGA and 10 μM Fluoroscein mono-beta-D-(2-deoxy-2-N-acetyl) glucopyranoside (FL-GlcNAc; Marker Gene Technologies Inc, Part #M1485). […] The amount of fluorescence measured was plotted against the concentration of inhibitor to produce a sigmoidal dose response curve, from which an IC50 was calculated.

As to `CCNC1=N[C@@H]2[C@@H](O)[C@H](O)[C@@H](CN=[N+]=[N-])O[C@@H]2S1` [compound no. 1, (3aR,5R,6S,7R,7aR)-5-(azidomethyl)-2-(ethylamino)-5,6,7,7a-tetrahydro-3aH-pyrano[3,2-d][1,3]thiazole-6,7-diol], the IC50 is below 100 nM.
